The numbers were not newly measured in patent publication US5849736A, “Isoxazoline and isoxazole fibrinogen receptor antagonists” (The DuPont Merck Pharmaceutical Company, priority 1995, dated 1998), which cites them from elsewhere.

The conditions of the series: intranasal; Anik et al. J. Pharm. Sci. 73: 684-685 (1984); cited from earlier work.

Turning to nafarelin acetate, the nasal bioavailability is given as ~ 2%.
